# Reference: PubChem BioAssay AID807 (SRMLSC, 2007)
# Only a part is listed here, and it is no random draw. Active and inactive are the calls of the source.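 How the source made its calls: active means viability increase at or above a cutoff of the median across tested compounds plus 3 SD (cut at about 8.5% in these data, passing the limit was not always enough); inconclusive means some gains above the cutoff, reason not given; inactive means the rest.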
# Assay: viability gain of MRP-1-high H69AR cells under doxorubicin, pilot screen, MRP-1 activator project, CellTiter-Glo, duplicate (AID 807);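 further: compound pretreatment 18-22 h then 72 h combined with doxorubicin; 0% = doxorubicin alone and 100% = vehicle without doxorubicin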
# Settings: H69AR viability with doxorubicin, CellTiter-Glo luminescence; at 10 µM; active compounds read high
row,Compound,viability increase
1,COC(=O)c1cc2c(s1)N=C(c1ccccc1)N(C)P2(=O)N1CCOCC1 (stereo unspecified),inactive: -0.93%
